This passage reports growth results from PubChem BioAssay (NCI).

Where “and” joins values, the source holds several entries; their conditions need not be identical. Identical values can stand only once. The entries are a selection whose mix differs from that of the whole data set.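 Compound tested at a single concentration for 48 hours in 96-well plates; a percent growth value below 10 was scored as active.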 Some salts or complexes appear as unconnected parts, following the source record. Calls of active or inactive are those of the source.

The subject of this experiment is K-562 leukemia. Put plainly: NCI-60 one-dose screen, 48 h (100 = growth as untreated, 0 = no growth, -100 = all killed). As to conditions: 10 µM.
With `CCCOP(=S)(Cl)OCCC`, the growth was inactive: 103%.
`CN(C)CCS`: the growth is inactive: 103% and inactive: 115%.
`O=C(O)C1(O)c2ccccc2-c2ccccc21`: the growth was inactive: 93.4% and inactive: 78.5%.
Under `Nc1cccc(Cl)c1.O=[N+]([O-])c1cc([N+](=O)[O-])c(O)c([N+](=O)[O-])c1` stands inactive: 97.2%; under `OCCSCCO`, inactive: 116%; under `Nc1cc([As](Cl)Cl)cc(N)c1O`, inactive: 16.9%.
In the case of `O=[N+]([O-])N(CCN(CC(Br)([N+](=O)[O-])[N+](=O)[O-])[N+](=O)[O-])CC(Br)([N+](=O)[O-])[N+](=O)[O-]`, the growth was inactive: 86.7%.
In the case of `O=C1N([N+](=O)[O-])CCN1[N+](=O)[O-]` it was inactive: 116%; in that of `CC[N+]([O-])(CC)Cc1ccccc1.O=[N+]([O-])c1cc([N+](=O)[O-])c(S(=O)(=O)O)c([N+](=O)[O-])c1`, inactive: 102%.
In the case of `CP(=O)(OCCCl)N(CCCl)CCCl` (stereo not given) it was inactive: 84.9%; in that of `CN(CCO)CCCl.O=[N+]([O-])c1cc([N+](=O)[O-])c(O)c([N+](=O)[O-])c1`, inactive: 103%; in that of `CCN(CC)CCOC(=O)C(O)(c1ccccc1)c1cc(C)c(C)c(C)c1C` (stereo not given), inactive: 81.7%.
In the case of `CCN(CC)CCOC(=O)C(O)(c1ccccc1)c1cc(C)cc(C)c1C` (stereo not given) it was inactive: 91.9%.
As for `CCN(C)CC.O=[N+]([O-])c1cc([N+](=O)[O-])c(O)c([N+](=O)[O-])c1`, the growth is inactive: 107%.
In the case of `O=C(Cl)c1c([N+](=O)[O-])cc([N+](=O)[O-])cc1[N+](=O)[O-]` it was active: -23.2%; in that of `COc1ccc(C(O)(C(=O)OCCN2CCCCC2)c2ccc(OC)cc2)cc1`, inactive: 66%.
Turning to `Cc1c([N+](=O)[O-])c(C)c([N+](=O)[O-])c(C)c1[N+](=O)[O-]`, the growth is inactive: 94.3%.
Under `O=C(OCCN1CCCCCCCC1)C(O)(c1ccccc1)c1ccccc1` stands inactive: 99.3%; under `CN/C(N)=N/[N+](=O)[O-]`, inactive: 109%.
On to `CCOC(=O)Nc1c([N+](=O)[O-])cc([N+](=O)[O-])cc1[N+](=O)[O-]`, for which the growth is inactive: 72.7%.
Under `O=[N+]([O-])c1cc([N+](=O)[O-])c(Nc2nnnn2CCO)c([N+](=O)[O-])c1` stands inactive: 96.9%; under `Cc1c([N+](=O)[O-])cc([N+](=O)[O-])c(Br)c1[N+](=O)[O-]`, inactive: 13.7%.
In the case of `CN1CCN(CCOC(=O)C(O)(c2ccccc2)c2ccccc2)CC1` it was inactive: 112%.
In the case of `O=[N+]([O-])c1cc([N+](=O)[O-])c(O)c([N+](=O)[O-])c1.c1ccc([I+]c2ccccc2)cc1` it was inactive: 32.1%; in that of `Nc1cc([N+](=O)[O-])cc([N+](=O)[O-])c1O`, inactive: 111% and inactive: 98.8%.
Regarding `CC(C)N1CCN(CCOC(=O)C(O)(c2ccccc2)c2ccccc2)CC1`, the growth was inactive: 91%.
Under `CC(C)N(CCCl)C(C)C` stands inactive: 115%; under `O=[N+]([O-])OCCOc1ccc([N+](=O)[O-])cc1[N+](=O)[O-]`, inactive: 97.8%.
Under `O=[N+]([O-])N(CCOC(N(F)F)(N(F)F)N(F)F)CC([N+](=O)[O-])([N+](=O)[O-])[N+](=O)[O-]` stands inactive: 98.6%; under `NN/C(N)=N/[N+](=O)[O-]`, inactive: 93.1%.
